# From the supplement of paper PMC11006884
# The chains behind the UniProt entries cited, without tags or fusion partners.
# UniProt O43521, whole entry, looked up: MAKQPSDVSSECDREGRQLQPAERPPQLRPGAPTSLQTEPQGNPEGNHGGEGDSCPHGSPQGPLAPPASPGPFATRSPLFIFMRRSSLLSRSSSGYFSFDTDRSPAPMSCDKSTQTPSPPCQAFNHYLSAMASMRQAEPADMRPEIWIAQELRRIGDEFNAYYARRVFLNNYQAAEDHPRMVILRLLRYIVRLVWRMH
# What follows is the remainder of the data, with few or none of the targets with a hit.
# Biological target: BCL2L11 C12 (UniProt O43521)
# Test: log2 ratio of iodoacetamide-alkyne labeling of the cysteine site, DMSO over compound (competition); higher = stronger covalent engagement of the cysteine by the compound, active = 1 or more
# Settings: 500 µM; treatment time 1 h; system: HEK293T cell lysate
# Method in brief: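 HEK293T lysate (2 mg/mL) was treated with DMSO or electrophile (500 µM, 1 h, ambient temperature), then iodoacetamide alkyne (1 h), clicked to sCIP-TMT reagents, pooled, trypsin-digested overnight at 37 °C, streptavidin-enriched and acid-eluted. Peptides were run on Orbitrap Eclipse LC-MS/MS with FAIMS and quantified in FragPipe. The log2 competition ratio per cysteine is mean control-channel over mean compound-channel reporter intensity. Duplicate channels and three replicates were used, and cysteines quantified in only one replicate were excluded.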
structure (smiles),measurement,value
COC(=O)C#Cc1ccccc1 [methyl 3-phenylpropiolate],log2 ratio of iodoacetamide-alkyne labeling,inactive: 0.38
